Results as given in BindingDB's records for doi:10.1007/s00210-001-0505-y (Institut De Recherches Servier, 2002).

By UniProt entry, the sequences of proteins in these tests, tags left out. Where a name states a change or a piece, a line headed by the entry shows the natural chain unless it says otherwise.
UniProt P28335: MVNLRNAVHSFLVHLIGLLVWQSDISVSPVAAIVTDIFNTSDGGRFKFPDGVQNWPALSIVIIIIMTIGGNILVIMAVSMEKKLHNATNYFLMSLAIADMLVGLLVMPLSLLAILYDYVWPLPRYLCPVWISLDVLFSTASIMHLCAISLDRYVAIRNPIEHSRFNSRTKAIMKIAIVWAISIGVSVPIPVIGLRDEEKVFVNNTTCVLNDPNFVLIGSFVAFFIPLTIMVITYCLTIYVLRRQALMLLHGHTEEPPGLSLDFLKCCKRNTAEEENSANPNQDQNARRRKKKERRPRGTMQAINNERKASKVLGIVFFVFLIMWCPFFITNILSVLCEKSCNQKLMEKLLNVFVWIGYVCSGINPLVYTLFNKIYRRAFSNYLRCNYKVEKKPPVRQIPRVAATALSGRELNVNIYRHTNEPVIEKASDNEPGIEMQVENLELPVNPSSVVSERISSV

target: 5-hydroxytryptamine receptor 2C (Homo sapiens, UniProt P28335)

Ki	Compound
3.16 nM	Cn1ccc2cc3c(cc21)CCN3C(=O)Nc1cccnc1
2140 nM	Cc1cc(NC(=O)Nc2ccc3c(ccn3C)c2)sn1 [CAS_3277600]

Compound	Ki
CN1C[C@@H](NS(=O)(=O)N(C)C)C[C@@H]2c3cccc4c3c(cn4C)C[C@H]21 [MESULERGINE]	1.12 nM
